Test [1] has as its target T1, TGF-beta receptor type-1 (Homo sapiens) (UniProt P36897).
T1 sequence (whole entry): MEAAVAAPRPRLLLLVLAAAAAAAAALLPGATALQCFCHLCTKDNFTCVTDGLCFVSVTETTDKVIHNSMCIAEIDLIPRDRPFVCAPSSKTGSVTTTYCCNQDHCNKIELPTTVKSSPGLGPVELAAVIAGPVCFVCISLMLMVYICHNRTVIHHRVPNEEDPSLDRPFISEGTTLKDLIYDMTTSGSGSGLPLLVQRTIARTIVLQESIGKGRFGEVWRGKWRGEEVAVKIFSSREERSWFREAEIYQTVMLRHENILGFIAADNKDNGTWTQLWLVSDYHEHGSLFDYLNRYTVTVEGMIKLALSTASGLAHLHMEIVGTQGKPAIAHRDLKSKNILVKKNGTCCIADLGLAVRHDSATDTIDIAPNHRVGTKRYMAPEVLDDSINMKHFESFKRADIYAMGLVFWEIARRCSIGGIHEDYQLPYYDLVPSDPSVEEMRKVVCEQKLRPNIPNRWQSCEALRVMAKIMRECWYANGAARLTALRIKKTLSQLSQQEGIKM
Description: Inhibition of ALK5 in human HepG2 cells assessed as reduction in TGFbeta1-induced Smad2 phosphorylation incubated for 36 hrs by Western blot analysis. The test is classed as cell-based. (A western blot detects proteins with antibodies after separation by electrophoresis.)

Test [2] has as its target T1, TGF-beta receptor type-1 (Homo sapiens). The test is described as follows: Inhibition of ALK5 in human SPC-A1 cells assessed as reduction in TGFbeta1-induced Smad2 phosphorylation at 0.1 to 0.5 uM incubated for 36 hrs by Western blot analysis. The test is classed as cell-based.

Activity calls are given as the source filed them. The rule behind the calls is not given here.

With `Cc1cccc(-c2nn3c(c2-c2ccnc4ccc(C(N)=O)cc24)CCC3)n1`, the inhibition entry in test [1] was “Dose-dependent effect”. Moreover, in test [2], the inhibition result was “Active”.

For the origin of these results see ChEMBL document CHEMBL4433262, “Synthesis and biological evaluation of novel benzo[c][1,2,5]thiadiazol-5-yl and thieno[3,2-c]- pyridin-2-yl imidazole derivatives as ALK5 inhibitors” (Bioorg Med Chem Lett, 2019).
